These results are taken from article PMC5222732 (Journal of medicinal chemistry, 2016).

Protein sequences, listed by entry. Tags and fused reporters are not part of them. Lines headed by an entry give the natural chain unless they say otherwise; changes in a name come on top.
UniProt P41144: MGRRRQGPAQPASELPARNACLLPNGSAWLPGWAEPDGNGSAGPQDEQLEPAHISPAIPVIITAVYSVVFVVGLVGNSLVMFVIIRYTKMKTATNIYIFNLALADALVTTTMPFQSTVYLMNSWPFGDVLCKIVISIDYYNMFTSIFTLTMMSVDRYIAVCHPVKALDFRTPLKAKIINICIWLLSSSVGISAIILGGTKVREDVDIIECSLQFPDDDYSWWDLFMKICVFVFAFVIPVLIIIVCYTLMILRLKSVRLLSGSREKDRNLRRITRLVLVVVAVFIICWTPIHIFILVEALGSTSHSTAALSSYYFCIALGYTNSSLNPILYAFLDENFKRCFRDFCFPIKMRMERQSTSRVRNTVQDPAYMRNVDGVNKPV
UniProt P33535, whole entry: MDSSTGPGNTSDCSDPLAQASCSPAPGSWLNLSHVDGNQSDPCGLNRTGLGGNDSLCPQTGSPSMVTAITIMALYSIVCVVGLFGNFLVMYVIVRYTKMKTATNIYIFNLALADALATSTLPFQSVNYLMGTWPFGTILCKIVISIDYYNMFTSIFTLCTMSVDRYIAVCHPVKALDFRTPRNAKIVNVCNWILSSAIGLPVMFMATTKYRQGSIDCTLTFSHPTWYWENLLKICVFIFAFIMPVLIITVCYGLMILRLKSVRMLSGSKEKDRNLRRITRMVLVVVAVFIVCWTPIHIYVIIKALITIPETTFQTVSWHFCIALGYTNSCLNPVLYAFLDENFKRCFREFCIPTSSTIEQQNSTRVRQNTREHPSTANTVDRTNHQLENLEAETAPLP

The target of experiment [1] is T1, κ opioid receptor (KOR) (Cavia porcellus, UniProt P41144). In words: GPI functional assay, κ antagonist Ke. The experiment is classed as cell-based, guinea pig.
The target of the next experiment is μ opioid receptor (MOR) (Rattus norvegicus, UniProt P33535). In words: biochemical. The format is binding.
The target in experiment [2] is T1, κ opioid receptor (KOR). The format is binding, guinea pig.

One may read the Kb as the equilibrium dissociation constant of an antagonist, usually derived from a functional assay. A lower Kb goes with a more potent antagonist. For orientation: Ki means the dissociation constant of the complex between target and ligand, obtained from inhibition or displacement. A higher Ki goes with a looser hold on the target.

On κ opioid receptor (KOR) [1], `CCCC[C@@H]1NC(=O)[C@H](Cc2ccccc2)NC(=O)[C@@H](CCCNC(=N)N)NC(=O)[C@H](Cc2c(C)cc(O)cc2C)NC1=O` [compound 4, c[-D-Arg-Phe-Nle-Dmt-]] gave a Kb of 0.0497 ± 0.0039 µM. In addition, the Ki on μ opioid receptor (MOR) was 0.00154 ± 0.00018 µM; on κ opioid receptor (KOR) [2] it was 0.0227 ± 0.0053 µM.
